Three compounds from patent US12662479B2 (Foghorn Therapeutics Inc., priority 2020, dated 2026) can be followed below.

Protein sequences, listed by entry. Tags and fused reporters are not part of them.
UniProt P51532, whole entry: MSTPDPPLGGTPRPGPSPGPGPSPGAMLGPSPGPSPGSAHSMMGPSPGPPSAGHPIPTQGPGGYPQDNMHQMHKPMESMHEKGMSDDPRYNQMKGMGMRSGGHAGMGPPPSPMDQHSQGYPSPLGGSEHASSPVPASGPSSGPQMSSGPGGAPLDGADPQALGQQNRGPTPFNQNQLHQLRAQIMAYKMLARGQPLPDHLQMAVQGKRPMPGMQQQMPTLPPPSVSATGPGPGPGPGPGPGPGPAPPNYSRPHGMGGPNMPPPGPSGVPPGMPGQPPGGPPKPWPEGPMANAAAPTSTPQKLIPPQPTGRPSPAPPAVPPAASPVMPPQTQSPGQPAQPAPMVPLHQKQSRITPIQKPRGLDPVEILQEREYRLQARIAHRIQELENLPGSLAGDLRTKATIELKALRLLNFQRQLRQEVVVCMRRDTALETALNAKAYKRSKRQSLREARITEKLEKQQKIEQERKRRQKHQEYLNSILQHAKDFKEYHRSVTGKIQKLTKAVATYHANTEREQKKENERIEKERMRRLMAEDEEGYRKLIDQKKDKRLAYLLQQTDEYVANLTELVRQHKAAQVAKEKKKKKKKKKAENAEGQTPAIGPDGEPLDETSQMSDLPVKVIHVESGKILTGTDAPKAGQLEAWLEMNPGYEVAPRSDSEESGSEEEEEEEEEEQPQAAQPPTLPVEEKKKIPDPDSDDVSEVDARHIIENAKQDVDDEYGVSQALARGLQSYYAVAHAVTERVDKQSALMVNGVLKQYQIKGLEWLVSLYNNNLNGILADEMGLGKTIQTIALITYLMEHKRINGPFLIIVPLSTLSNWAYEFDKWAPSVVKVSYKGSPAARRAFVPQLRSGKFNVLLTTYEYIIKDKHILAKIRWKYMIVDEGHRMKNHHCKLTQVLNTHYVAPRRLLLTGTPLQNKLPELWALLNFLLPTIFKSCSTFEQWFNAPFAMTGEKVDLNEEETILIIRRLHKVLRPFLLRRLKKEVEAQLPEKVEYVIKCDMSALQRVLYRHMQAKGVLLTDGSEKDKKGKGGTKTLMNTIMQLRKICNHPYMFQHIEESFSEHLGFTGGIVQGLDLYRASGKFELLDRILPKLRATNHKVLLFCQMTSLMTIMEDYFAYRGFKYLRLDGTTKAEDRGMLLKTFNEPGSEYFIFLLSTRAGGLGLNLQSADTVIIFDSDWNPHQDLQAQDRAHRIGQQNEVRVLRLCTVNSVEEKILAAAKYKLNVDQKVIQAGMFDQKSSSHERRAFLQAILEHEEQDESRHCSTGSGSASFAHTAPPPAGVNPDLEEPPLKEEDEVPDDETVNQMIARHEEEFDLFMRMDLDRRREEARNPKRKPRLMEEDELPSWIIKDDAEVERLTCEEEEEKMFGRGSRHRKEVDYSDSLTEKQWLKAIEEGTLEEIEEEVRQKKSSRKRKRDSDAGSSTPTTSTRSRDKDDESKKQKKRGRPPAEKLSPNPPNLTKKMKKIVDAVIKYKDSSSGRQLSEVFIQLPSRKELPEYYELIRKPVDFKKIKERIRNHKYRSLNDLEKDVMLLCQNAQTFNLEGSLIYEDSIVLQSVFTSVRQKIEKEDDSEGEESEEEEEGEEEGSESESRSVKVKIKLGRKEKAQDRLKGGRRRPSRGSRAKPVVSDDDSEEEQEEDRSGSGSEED

The experiment concerns the target T1, HiBit-BRG1 fusion protein (Homo sapiens, UniProt P51532).
T1 construct: expressed in transfected cells
Put plainly: HiBiT-BRG1 cell-based degradation assay (Nano-Glo HiBiT Lytic Detection, 24 h). Also on record: dose or concentration left out as unconfirmed. As to conditions: HeLa, read-out: BRG1 HiBit Degradation Maximum measured. As for the experimental part:
Procedure: A stable HeLa cell line expressing HiBiT-BRM was generated. On day 0, 5000 cells were seeded in 40 μL of media into each well of 384-well cell culture plates. […] Nano-Glo HiBiT Lytic Detection System (Promega N3050) reagent was freshly prepared and 20 ul was added to each well. Upon addition of this LgBit-containing reagent, the HiBiT and LgBiT proteins associate to form the luminescent NanoBiT luciferase. The plates were shaken for 10 minutes at room temperature and the bioluminescence read using an EnVision plate reader (PerkinElmer).
For measurement of BRG1 degradation, a stable HeLa cell line expressing HiBit-BRG1 and LgBit was generated. The same protocol as above was then followed.
The degradation % was calculated using the following formula: % degradation=100%−100%×(LumSample−LumLC)/(LumHC−LumLC). DMSO treated cells are employed as High Control (HC) and 2 μM of a known BRM/BRG1 degrader standard treated cells are employed as Low Control (LC).

Structures can show the parent of a compound that is named as a salt.

`Cc1ncsc1-c1ccc(CNC(=O)[C@@H]2C[C@@H](O)CN2C(=O)[C@@H](NC(=O)CCN2CC(C(=O)NCc3cccc(-c4cccc(-c5csc(NC(=O)CNC(=O)c6ccn(S(C)(=O)=O)c6)n5)c4)c3)C2)C(C)(C)C)cc1` [Compound 154, (2S,4R)-4-hydroxy-1-[(2S)-2-[3-[3-([[3-(2-[2-[(1-methanesulfonylpyrrol-3-yl)formamido]acetamido]-1,3-thiazol-4-yl)-[1,1-biphenyl]-3-yl]methyl]carbamoyl)azetidin-1-yl]propanamido]-3,3-dimethylbutanoyl]-N-[[4-(4-methyl-1,3-thiazol-5-yl)phenyl]methyl]pyrrolidine-2-carboxamide formate]: the Dmax was under 50%. Regarding `CS(=O)(=O)n1ccc(C(=O)N[C@@H](COCc2ccc(C(=O)N3CC(COc4ccc5c(c4)C(=O)N(C4CCC(=O)NC4=O)C5=O)C3)cc2)C(=O)Nc2nc(-c3ccccc3)cs2)c1` (stereo partly drawn) [Compound 198, (2S)-3-([4-[3-([[2-(2,6-dioxopiperidin-3-yl)-1,3-dioxoisoindol-5-yl]oxy]methyl)azetidine-1-carbonyl]phenyl]methoxy)-2-[(1-methanesulfonylpyrrol-3-yl)formamido]-N-(4-phenyl-1,3-thiazol-2-yl)propanamide], the Dmax was under 50%. On to `Cc1ncsc1-c1ccc(CNC(=O)[C@@H]2C[C@@H](O)CN2C(=O)[C@@H](NC(=O)CCN2CCC(C(=O)NCc3cccc(-c4cccc(-c5csc(NC(=O)CNC(=O)c6ccn(S(C)(=O)=O)c6)n5)c4)c3)CC2)C(C)(C)C)cc1` [Compound 155, 1-(2-[[(2S)-1-[(2S,4R)-4-hydroxy-2-([[4-(4-methyl-1,3-thiazol-5-yl)phenyl]methyl]carbamoyl)pyrrolidin-1-yl]-3,3-dimethyl-1-oxobutan-2-yl]carbamoyl]ethyl)-N-[[3-(2-[2-[(1-methanesulfonylpyrrol-3-yl)formamido]acetamido]-1,3-thiazol-4-yl)-[1,1-biphenyl]-3-yl]methyl]piperidine-4-carboxamide formate], for which the Dmax was under 50%.
